Experimental findings from PMC12865133, “Macrocyclic Molecular Glues for the 14‐3‐3/ChREBP Interaction: Affinity and Cooperativity in an Inverse Relationship” (Angewandte Chemie (International Ed. in English), 2025) are described below.

This test has as its target T1, 14-3-3γ (Homo sapiens, UniProt P61981).
T1 sequence (P61981 1-247): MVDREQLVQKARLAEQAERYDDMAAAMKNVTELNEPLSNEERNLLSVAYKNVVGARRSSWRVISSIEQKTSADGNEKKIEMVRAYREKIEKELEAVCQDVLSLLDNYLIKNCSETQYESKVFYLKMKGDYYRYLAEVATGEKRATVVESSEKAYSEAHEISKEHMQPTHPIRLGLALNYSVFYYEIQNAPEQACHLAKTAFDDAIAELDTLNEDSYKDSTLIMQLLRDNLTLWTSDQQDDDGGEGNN
The test is described as follows: Isothermal titration calorimetry, peptide titrated to 14-3-3γ. The settings on record: ITC, 200 μM peptide titrated to 20 μM 14-3-3γ, mean ± SD, n=3. The format is binding. How it is done: Final dialysis fluid from protein expression was frozen as 2 mL aliquots to serve as ITC buffer (25 mM HEPES pH 8.0, 100 mM NaCl, 10 mM MgCl2, 500 µM TCEP). 14-3-3γ and peptide were dissolved and diluted in this buffer to 20 μM and 200 μM, respectively. Samples were degassed for 10 min prior to measurement at 450 mmHg. The reference cell was filled with 300 µL degassed MilliQ and the sample cell was filled with 300 µL of peptide or protein mixture. Syringe was loaded with at least 200 µL protein or peptide sample. Measurements were performed on an Affinity ITC LV (TA instruments), with injection size set to 2 µL, stirring speed of 125 rpm and temperature at 25 ̊C. The baseline was automatically adjusted with NITPIC, analysis of data was done in SEDPHAT, and images were produced with GUSSI software. Data and errors represent mean ± SD, n=3 replicates.
On the technique in general: ITC needs no label: the signal is the heat of the interaction.

Consider `NCCCC[C@H](NC(=O)[C@H](Cc1ccc([N+](=O)[O-])cc1)NC(=O)CCNC(=O)C[C@H](CO)NC(=O)[C@H](Cc1ccc([N+](=O)[O-])cc1)NC(=O)[C@@H](N)COP(=O)(O)O)C(N)=O` [pepD, reference compound], for which, under “25 mM HEPES pH 8.0, 100 mM NaCl, 10 mM MgCl2, 500 µM TCEP, 25 °C”, the ΔS was -1.1 ± 1 cal/(mol·K). Where the note is “pH 8.0, 25 °C”, this compound came in with a ΔG of -7.58 ± 0.12 kcal/mol and a ΔH of -7.9 ± 0.39 kcal/mol.
